Molecular target: Amyloid-beta precursor protein (Homo sapiens, UniProt P05067)
Assay: Displacement of [125I-N-Methyl-4-(4-bromoanilino)phthalimide from beta-amyloid plaques isolated from Alzheimer's disease patient brain

Sequences of proteins named here, by UniProt entry; tags and fusion partners are left off.
UniProt P05067, whole entry: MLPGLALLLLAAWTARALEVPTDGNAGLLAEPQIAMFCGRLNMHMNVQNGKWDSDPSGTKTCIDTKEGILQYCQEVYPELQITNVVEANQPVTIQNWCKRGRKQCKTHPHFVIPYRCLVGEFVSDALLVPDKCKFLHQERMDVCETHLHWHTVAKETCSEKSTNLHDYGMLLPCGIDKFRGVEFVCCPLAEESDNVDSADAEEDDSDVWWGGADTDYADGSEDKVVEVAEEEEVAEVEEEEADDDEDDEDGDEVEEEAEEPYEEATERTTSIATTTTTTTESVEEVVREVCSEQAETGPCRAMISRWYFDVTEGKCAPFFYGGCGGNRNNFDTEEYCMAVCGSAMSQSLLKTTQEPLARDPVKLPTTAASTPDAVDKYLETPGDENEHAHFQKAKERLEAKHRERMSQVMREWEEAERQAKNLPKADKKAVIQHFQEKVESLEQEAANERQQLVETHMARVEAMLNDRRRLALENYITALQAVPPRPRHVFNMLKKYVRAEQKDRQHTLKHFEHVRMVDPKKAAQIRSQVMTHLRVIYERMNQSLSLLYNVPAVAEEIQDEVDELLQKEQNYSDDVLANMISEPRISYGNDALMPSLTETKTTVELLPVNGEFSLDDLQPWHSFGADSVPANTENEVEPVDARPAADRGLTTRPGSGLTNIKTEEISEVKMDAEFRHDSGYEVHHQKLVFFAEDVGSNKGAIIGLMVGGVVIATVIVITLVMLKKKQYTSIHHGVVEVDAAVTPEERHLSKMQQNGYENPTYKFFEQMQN

Ki: > 1 µM
SMILES: Cc1ccc2c(c1)sc(-c1ccc(N(C)C)cc1)[n+]2C [THIOFLAVIN T]

Reference: ChEMBL document CHEMBL1159057, “Novel anilinophthalimide derivatives as potential probes for beta-amyloid plaque in the brain” (Bioorg Med Chem, 2010)
